The subject of the experiment is HCA2/GPR109A mRNA. Briefly: HCA2/GPR109A gene expression in LPS-stimulated THP-1 macrophages (qRT-PCR). It counts as cell-based, human. As to conditions: niacin 50 µM; 4 h LPS 1 µg/mL; p < 0.01. How it is done:
The human THP-1 monocyte cell line was obtained from ATCC (American Type Culture Collection). […] The THP-1 monocytes were stimulated to differentiate into macrophages with phorbol 12-myristate 13-acetate (PMA) (50 ng/mL) for 24 h. The medium was exchanged for PMA-free medium for 48 h before the cells were used for experiments.
The total RNA was isolated from THP-1 cells using TRIzol reagent, according to the manufacturer’s protocol. First-strand cDNA was synthesized from 2 µg of RNA using oligo(dT) primers with RevertAid H Minus kit (Thermo Fisher Scientific, USA). The qRT-PCR procedure was performed using ABsolute Blue QPCR SYBR Green Master Mix reagent (Thermo Fisher Scientific, USA) with a ViiA7 real-time PCR detection system (Applied Biosystems, USA). The primer pairs that were employed for HCA2/GPR109A were forward 5′-[…]-3′ and reverse 5′-[…]-3′; for FFA2/GPR43 were forward 5′-[…]-3′ and reverse 5′-[…]-3′; for FFA3/GPR41 were forward 5′-[…]-3′ and reverse 5′-[…]-3′; for IL-6 were forward 5′-[…]-3′ and reverse 5′-[…]-3′; for MCP-1 were forward 5′-[…]-3′ and reverse 5′-[…]-3′; for TNF-α were forward 5′-[…]-3′ and reverse 5′-[…]-3′; for RPS29 were forward 5′-[…]-3′ and reverse 5′- […]-3′. The mRNA levels were quantified and normalized to the levels of the reference gene RPS29 using the 2^−ΔΔCt method and presented as relative expression compared to the values for untreated cells.
Background: Quantitative PCR measures a nucleic acid by following its amplification.

These results are taken from publication PMC8537386, “The Specificity and Broad Multitarget Properties of Ligands for the Free Fatty Acid Receptors FFA3/GPR41 and FFA2/GPR43 and the Related Hydroxycarboxylic Acid Receptor HCA2/GPR109A” (Pharmaceuticals, 2021).

`O=C(O)c1cccnc1` [niacin, reference compound]: the “LPS-stimulated HCA2/GPR109A mRNA level” value is on record as “significantly reduced”.
